This is a selection; strong and weak results do not stand in their true shares. Active and inactive are the calls of the source.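 The calls were made as follows: active = rise or fall in signal beyond 3 SD of buffer-only wells in both replicate plates, either sign; inactive = the rest.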

From PubChem BioAssay AID2777 (Johns Hopkins Ion Channel Center, 2010) come the findings set out here.

This assay has as its system transient receptor potential cation channel C4 (TRPC4), mouse. The assay can be described thus: mouse TRPC4 modulation by TRPC6 hits, confirmation, selectivity assay for TRPC6 inhibitor project, cell-based, HEK293 TRPC4/mu-opioid, membrane potential dye (AID 2777).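 Also: integrated kinetic ratio of fluorescence range over baseline.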 The settings on record: membrane potential fluorescence, at 10 µM.
Consider `CCOC(=O)c1ccc(NP(C)(=O)Oc2ccc(Cl)cc2)cc1` (stereo not given), for which the outcome was inactive.
As to `O=C(OCCCN1CCCC1)C(O)(c1ccccc1)C1CCCCC1` (stereo not given), the activity change, negative = inhibition was active: 17.8%.
Regarding `CN(C)CCOC(=O)C(O)(c1ccccc1)C1CCCC1` (stereo not given), the activity change, negative = inhibition was active: 0.07%.
`CN(C)CCOC(=O)C(O)(c1ccccc1)C1CCCCC1` (stereo not given): the activity change, negative = inhibition was active: 5.55%.
For the compound `CCN(CC)CCCOC(=O)C(O)(c1ccccc1)C1CCCCC1` (stereo not given), the activity change, negative = inhibition is active: 18.3%.
